Measurements from patent US9125900B2 (priority 2005, dated 2015).

Assays:
[1] = system: boer goats (Capra hircus); assay: etorphine immobilization of goats with coadministered serotonergic ligands: recumbency and cardiorespiratory variables; settings: for PaCO2 after diprenorphine administration vs preinjection / PaO2 after diprenorphine administration vs preinjection / hemoglobin oxygen saturation after diprenorphine administration vs preinjection: diprenorphine line = etorphine+water trial; for heart rate compared with etorphine+water: after the second 10-min interval; for clinical hypoxia (PaO2<60 mmHg and percent arterial haemoglobin saturation <85%): etorphine alone up until 10 min after injection, ligands coadministered with etorphine; for PaO2 compared with etorphine+water: first 10 min of immobilization, P<0.05; for effect on the etorphine-induced biphasic changes of mean arterial pressure / effect on the etorphine-induced decrease in PaO2 / effect on the etorphine-induced decrease in hemoglobin oxygen saturation / effect on the etorphine-induced increase in A-a gradient / effect on the etorphine-induced rise in PaCO2 / effect on the etorphine-induced decline in heart rate / effect on the etorphine-induced decrease in respiratory rate: ligand 0.5 mg/kg i.v. coadministered with etorphine; for effect on the etorphine-induced decline in heart rate: after first 8 min; for effect on the etorphine-induced decrease in respiratory rate: pre- vs postinjection; for time to recumbency: ligand 0.5 mg/kg i.v. injected with etorphine 0.06 mg/kg i.m., mean (SD), P<0.05 vs etorphine+water; for degree of immobilization compared with etorphine+water: ligand 0.5 mg/kg i.v. with etorphine, clinical assessment over 30 min
[2] = system: boer goats (Capra hircus); assay: serotonergic ligands injected alone, without etorphine, in goats; settings: 0.5 mg/kg i.v. without etorphine
goats = assay: pilot dose-response study in goats under etorphine immobilization; settings: 0.5 mg/kg i.v. under etorphine immobilization
[3] = diprenorphine 0.096 mg/kg i.v. at 30 min

Row | Structure (SMILES) | PaCO2 after diprenorphine administration vs preinjection [1, 3] | PaO2 after diprenorphine administration vs preinjection [1, 3] | hemoglobin oxygen saturation after diprenorphine administration vs preinjection [1, 3] | immobilization or sedation by the ligand alone [2] | effect of midrange dose on respiratory rate and side effects (goats) | heart rate compared with etorphine+water [1] | heart rate after diprenorphine administration vs preinjection [1, 3] | mean arterial pressure after diprenorphine administration vs preinjection [1, 3] | clinical hypoxia (PaO2<60 mmHg and percent arterial haemoglobin saturation <85%) [1] | PaO2 compared with etorphine+water [1] | effect on the etorphine-induced biphasic changes of mean arterial pressure [1] | effect on the etorphine-induced decrease in PaO2 [1] | effect on the etorphine-induced decrease in hemoglobin oxygen saturation [1] | effect on the etorphine-induced increase in A-a gradient [1] | effect on the etorphine-induced rise in PaCO2 [1] | effect on the etorphine-induced decline in heart rate [1] | effect on the etorphine-induced decrease in respiratory rate [1] | time to recumbency [1] | degree of immobilization compared with etorphine+water [1] | other results
1 | CO[C@]12CC[C@@]3(C[C@@H]1C(C)(C)O)[C@H]1Cc4ccc(O)c5c4[C@@]3(CCN1CC1CC1)[C@H]2O5 | returning to preinjection values | returned to preinjection values | returned to near preinjection values |  |  |  |  |  |  |  |  |  |  |  |  |  |  |  |  | respiratory rate after diprenorphine reversal vs preinjection ([1]; etorphine+water trial, diprenorphine 0.096 mg/kg i.v. at 30 min): returned to preinjection rates
2 | CCCN(CCC)C1CCc2cccc(O)c2C1 (racemic) [8-OH-DPAT, 8-hydroxy-2-(di-n-propylamino)tetralin] | remained moderately elevated | Neither zacopride [F(10,70)=5.67, P=0.64] nor 8-OH-DPAT [F(10,70)=5.67, P=0.95] affected the return of PaO2 values to preinjection values | remained moderately depressed | Neither zacopride nor 8-OH DPAT immobilized or sedated the goats | increased the respiratory rate in the goats under etorphine immobilization without causing any harmful side effects | decreased | remained significantly (Student's paired t-test, P<0.0001) lower than the preinjection rate | significantly higher than preinjection values | remained above levels defining clinical hypoxia | higher levels of PaO2 | enhanced the biphasic pressure changes | attenuated, but did not fully abolish | attenuated the etorphine-induced decrease in saturation | abolished the increase in the gradient | had no beneficial effect | accentuated | abolished the decrease in the respiratory rate | 51 (SD 21) s | not qualitatively different from that following etorphine administration with water | effects consistent with depression of respiratory neurons ([1]; 500 μg/kg with etorphine in goats): did not observe any effects consistent with depression of respiratory neurons; A-a gradient after diprenorphine administration vs preinjection [1, 3]: dropped significantly below preinjection values; mean arterial pressure compared with etorphine+water and etorphine+zacopride ([1]; first 10-min interval): significantly (F=0.94, P=0.0015) higher; hemoglobin oxygen saturation compared with etorphine+water ([1]; only over the first 10-min interval after administration): significantly (F=10.76, P=0.0015) higher
3 | COc1cc(N)c(Cl)cc1C(=O)NC1CN2CCC1CC2.Cl (racemic) [zacopride, 4-amino-N-1-azabicyclo[2.2.2] oct-3-yl-5-chloro-2-methoxybenzamide hydrochloride] | did not alter the return of PaCO2 values to preinjection values | Neither zacopride [F(10,70)=5.67, P=0.64] nor 8-OH-DPAT [F(10,70)=5.67, P=0.95] affected the return of PaO2 values to preinjection values | did not alter the return of saturation to preinjection levels | Neither zacopride nor 8-OH DPAT immobilized or sedated the goats | increased the respiratory rate in the goats under etorphine immobilization without causing any harmful side effects | increased | returned to the preinjection rates | lower than preinjection pressure | remained above levels defining clinical hypoxia | higher levels of PaO2 | attenuated the biphasic effects of etorphine administration | attenuated, but did not fully abolish | attenuated the etorphine-induced decrease in saturation | attenuated | significantly attenuated the rise in PaCO2 | attenuated | abolished the decrease in the respiratory rate | 63 (SD 23) s | increased muscle tone, moved more, and vocalized more | PaCO2 compared with etorphine+water and etorphine+8-OH-DPAT ([1]; first 20 min of the immobilization period): significantly [F(10,70)=3.87, P<0.05] lower; hemoglobin oxygen saturation compared with etorphine+water ([1]; over the entire immobilization period): significantly (F=7.18, P<0.05) higher; mean arterial pressure throughout the immobilization ([1]; zacopride coadministered with etorphine, P=0.025): reduced mean arterial pressure throughout the immobilization
